For the experiment, the target named is aldose reductase (Bos taurus, UniProt P16116). Briefly: % inhibition in vitro at 10^-7 M (aldose reductase inhibition). In kind it is biochemical.

With `COc1ccc2c(C(=S)N(C)CC(=O)O)cccc2c1C(F)(F)F` [Compound 7, N--[[5-(Trifluoromethyl)-6-methoxy-1-naphthalenyl]thioxomethyl]-N--methylglycine, reference compound], testing at 0.1 µM gave an inhibition of 79%.

For the origin of these results see patent US4604406A, “N-[6-methoxy-5-(perfluoroalkyl)-1-naphtholyl]-N-methylglycines and their thionaphthoyl analogs” (Ayerst, McKenna & Harrison, Inc., priority 1984, dated 1986).
